Results on 1 substance are retold here after article PMC9184582.

The assay addresses water-soluble chlorophyll protein (WSCP) from Lepidium virginicum, reconstituted with chlorophyll (Lepidium virginicum) (UniProt O04797). Kind of assay: SEC; size-exclusion chromatography of the reconstituted (chlorophyll-bound) WSCP; buffer and column not told. (Size exclusion chromatography separates by hydrodynamic size, large species first.)

As to “water-soluble chlorophyll protein (WSCP) from Lepidium virginicum, reconstituted with chlorophyll (from UniProt O04797 27-206) (natural protein)”, the stoichiometry N stood at 4.

Usually stoichiometry N stands for a count of units in the complex or per binding partner.
